Data published in US20200338094A1, “Use of a Heterocyclic Bcl-xL Inhibitor and Related Analogs for Removing Senescent Cells in the Treatment of Eye Diseases and Other Age-Related Conditions” (Unity Biotechnology, Inc., priority 2015, published 2020).

Legend:
[1] = tested on: senescent fibroblasts (SnCs), IMR90 cells; assay: Senolytic activity: killing senescent (irradiated) IMR90 fibroblasts, CellTiter-Glo; settings: read-out: Best SnCs EC50; killing senescent (irradiated) fibroblasts in culture
Bcl isoforms = assay: Binding affinity for the Bcl isoforms; settings: Bcl-xL, Bcl-2, Bcl-w

`Cc1c(S(C)(=O)=O)c(-c2cc(F)cc(N3CCN(c4ccc(NS(=O)(=O)c5ccc(N[C@H](CCN6CCC(C(=O)OCCCP(=O)(O)O)CC6)CSc6ccccc6)c(S(=O)(=O)C(F)(F)F)c5)cc4)CC3)c2)c(-c2ccc(Cl)cc2)n1C(C)C` was tested, and the EC50 [1] was 6 µM and the “binding affinities (Ki) for the Bcl isoforms, in words” value (Bcl isoforms) was “nanomole to picomole range”.
